Measured values published in PubChem BioAssay AID1359 (The Scripps Research Institute Molecular Screening Center, 2008).
This is a selection; strong and weak results do not stand in their true shares. Some of these compounds have results that are not shown, active ones among them. Active and inactive are the calls of the source. Cut-off read from the data, not from the text of the source: active = activation above about 27%; inactive = the rest.

Chains of the proteins cited; added tags and fusions are not shown.
UniProt P49146, whole entry: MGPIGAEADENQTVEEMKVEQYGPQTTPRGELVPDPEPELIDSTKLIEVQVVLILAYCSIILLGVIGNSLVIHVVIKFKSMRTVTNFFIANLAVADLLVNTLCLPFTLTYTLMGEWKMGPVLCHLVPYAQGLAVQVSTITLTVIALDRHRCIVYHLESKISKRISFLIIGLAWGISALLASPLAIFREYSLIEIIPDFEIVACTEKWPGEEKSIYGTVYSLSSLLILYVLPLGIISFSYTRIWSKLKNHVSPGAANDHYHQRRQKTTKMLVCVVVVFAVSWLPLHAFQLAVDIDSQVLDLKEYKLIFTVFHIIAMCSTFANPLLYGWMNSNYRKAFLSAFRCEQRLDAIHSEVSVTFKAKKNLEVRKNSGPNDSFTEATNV

Target: Neuropeptide Y receptor type 2 (Homo sapiens) (UniProt P49146)
Assay: human Y2 receptor positive modulation or activation – cell-based, primary screen (AID 1359);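 note: cells stimulated with NPY near EC25 plus isoproterenol at EC100; 0% = vehicle plus submaximal agonist and 100% = vehicle plus saturating agonist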
Details: cells expressing NPY-Y2, potentiator/agonist read-out; at 3.6 µM; active compounds read high

SMILES	activation
O=C(NCC1(N2CCCCC2)CCCCC1)c1cc([N+](=O)[O-])ccc1Cl	inactive: 9.02%
CC(C)N1C(=O)CC2(CCN(CCOC(=O)C(O)(c3ccccc3)c3ccccc3)CC2)C1=O	inactive: 6.03%
CCN(CC)CC(C)C(C)OC(=O)C(O)(c1ccccc1)c1ccccc1 (stereo unspecified)	inactive: -25.1%
CN(C)C1CCCC1OC(=O)C(O)(c1ccccc1)c1ccccc1 (stereo unspecified)	inactive: -1.55%
Cc1ccccc1C(=O)NCC1(N2CCCCC2)CCCCC1	inactive: -2.25%
C=CCN1CCN(CCOC(=O)C(O)(c2ccccc2)c2ccccc2)CC1	inactive: -7.75%
CCN1CCCC(OC(=O)C2(O)c3ccccc3C=Cc3ccccc32)C1 (stereo unspecified)	inactive: 2.12%
COc1cccc(C(=O)NCC2(N3CCCCC3)CCCCC2)c1	inactive: 5.66%
O=C(OC1CN2CCC1CC2)C(CO)(c1ccccc1)c1ccccc1 (stereo unspecified)	inactive: 7.1%
COc1ccc(Br)c(C(=O)NCC2(N3CCCCC3)CCCCC2)c1	inactive: -0.93%
CN(C)c1cccc(C(=O)NCC2(N(C)C)CCCCC2)c1	inactive: 1.85%
